Molecular target: human recombinant VAP-1 (SSAO/VAP-1 enzyme) (Homo sapiens (Human), UniProt Q16853)
Assay: In vitro inhibition of SSAO activity on human recombinant VAP-1 (colorimetric, benzylamine substrate)
Format: biochemical
Details: recombinant SSAO/VAP-1 in CHO cell homogenate, 1 mM benzyl amine
Experimental: For determining the SSAO/VAP-1 activity, the colorimetric method described by Holt, A (Holt, A., Anal. Biochem. 244, 384, 1997) for monoamine oxidase and analogous enzymes was used. Recombinant SSAO/VAP-1 enzyme was expressed in Chinese Hamster Ovary cells (CHO). These cells and cell cultures have been described earlier (Smith, D. J. et al, J. Exp. Med. 188, 17, 1998). The cell homogenate was prepared as follows: a suspension was made of approximately 3.6×10^8 cells in 25 ml lysation buffer (150 mM NaCl, 10 mM Tris-base pH 7.2, 1.5 mM MgCl2, 1% NP40), that was stirred for 1 night and incubated at 4° C. The homogenate was centrifugated (18000 g). The supernatant was used directly afterwards for the measurement. SSAO/VAP-1 activity measurement was carried out as follows on 96 precisely microtitrated plates, a given amount of inhibitor was added to each. The amount of the inhibitors varied among the measurements, the final concentration being between 1 nM and 50 μM in general, in 20 μl aqueous total volume for all cases. […] The plates were incubated for 30 min at 37° C. and the background absorbance was measured at 490 nm by a Wallac Victor II apparatus. […] The increase in the absorbance showing the SSAO/VAP-1 activity was measured at 490 nm. The inhibition was calculated in the % of the control absorbance corrected with the background absorbance, IC50 values were calculated using GraphPad Prism. […]

The chains behind the UniProt entries cited, without tags or fusion partners. Where a name states a change or a piece, a line headed by the entry shows the natural chain unless it says otherwise.
UniProt Q16853: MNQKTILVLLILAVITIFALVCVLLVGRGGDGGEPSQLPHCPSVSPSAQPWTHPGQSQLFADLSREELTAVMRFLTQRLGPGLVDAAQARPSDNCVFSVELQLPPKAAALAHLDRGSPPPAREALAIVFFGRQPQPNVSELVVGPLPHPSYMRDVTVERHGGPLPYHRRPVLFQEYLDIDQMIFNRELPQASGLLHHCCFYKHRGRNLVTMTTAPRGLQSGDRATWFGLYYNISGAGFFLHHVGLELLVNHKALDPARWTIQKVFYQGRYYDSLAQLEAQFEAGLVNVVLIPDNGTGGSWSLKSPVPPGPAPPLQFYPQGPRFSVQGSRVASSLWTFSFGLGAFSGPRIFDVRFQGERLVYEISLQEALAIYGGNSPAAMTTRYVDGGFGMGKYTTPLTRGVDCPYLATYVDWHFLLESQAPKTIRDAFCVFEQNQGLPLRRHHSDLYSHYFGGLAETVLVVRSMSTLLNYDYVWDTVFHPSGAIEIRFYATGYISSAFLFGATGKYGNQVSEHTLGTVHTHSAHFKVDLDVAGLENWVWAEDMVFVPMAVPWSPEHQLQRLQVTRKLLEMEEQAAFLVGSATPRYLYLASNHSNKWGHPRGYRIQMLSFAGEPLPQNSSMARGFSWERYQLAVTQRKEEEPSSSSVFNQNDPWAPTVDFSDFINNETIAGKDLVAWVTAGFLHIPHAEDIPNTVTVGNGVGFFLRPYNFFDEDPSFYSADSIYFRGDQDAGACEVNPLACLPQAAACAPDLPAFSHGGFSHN

Structure (SMILES): CCOc1c(C=NO)c(=O)n(C)c(=O)n1C [Compound 16, 6-Ethoxy-1,3-dimethyl-2,4-dioxo-1,2,3,4-tetrahydropyrimidine-5-carbaldehyde oxime]
- IC50: 53 µM
